Data: US20180221336A1, “DOSE SPARING KETOROLAC FORMULATIONS AND METHODS AND DEVICES FOR USE WITH SAME” (SteadyMed, Ltd., priority 2017, published 2018)

Conditions: Treatment B: four IM bolus injections of 30 mg every 6 hours

In the case of `O=C(c1ccccc1)c1ccc2n1CCC2C(=O)O` (racemic) [Ketorolac, (±)-5-benzoyl-2,3-dihydro-1H-pyrrolizine-1-carboxylic acid, compound with 2-amino-2-(hydroxymethyl)-1,3-propanediol], the Gmax0-6 (0-6 hr, geom. mean (geom. CV %)) was 2.039 (17.9) μg/mL, the Gmax6-12 (6-12 hr, geom. mean (geom. CV %)) was 1.952 (21.4) μg/mL and the Cmax12-18 (12-18 hr, geom. mean (geom. CV %)) was 1.955 (26.4) μg/mL. The Cmax18-24 (18-24 hr, geom. mean (geom. CV %)) was 2.049 (19.3) μg/mL, the Cavg (AUCtau/6 hours, geom. mean (geom. CV %)) was 1.136 (27.1) μg/mL and the AUC0-last (N = 12, geom. mean (geom. CV %)) was 27.83 (29.8) μg * hr/mL. The Kel (mean ± SD) was 0.1029 ± 0.02289 h⁻¹, the CL/F (mean ± SD, listed as Ketorolac tromethamine) was 3.083 ± 0.08957 L/h and 3.083 ± 0.8957 L/h and the tmax0-6 (median (minimum, maximum)) was 0.5000 (0.249, 1.25) hr. For the same compound, the tmax6-12 (median (minimum, maximum)) was 6.250 (6.25, 6.75) hr, the tmax12-18 (median (minimum, maximum)) was 12.25 (12.2, 13.0) hr and the tmax18-24 (median (minimum, maximum)) was 18.50 (18.3, 19.0) hr. For the same compound, the “Cmax—all” value (whole sampling interval, N = 12, geom. mean (geom. CV %)) was 2.240 (17.6) μg/mL.

“And” between values parts separate entries of the source, which are not always exact repeats. Equal entries are not always repeated.
